Amino acid sequences for entries named in this document (tags omitted).
UniProt O75874, whole entry R132H: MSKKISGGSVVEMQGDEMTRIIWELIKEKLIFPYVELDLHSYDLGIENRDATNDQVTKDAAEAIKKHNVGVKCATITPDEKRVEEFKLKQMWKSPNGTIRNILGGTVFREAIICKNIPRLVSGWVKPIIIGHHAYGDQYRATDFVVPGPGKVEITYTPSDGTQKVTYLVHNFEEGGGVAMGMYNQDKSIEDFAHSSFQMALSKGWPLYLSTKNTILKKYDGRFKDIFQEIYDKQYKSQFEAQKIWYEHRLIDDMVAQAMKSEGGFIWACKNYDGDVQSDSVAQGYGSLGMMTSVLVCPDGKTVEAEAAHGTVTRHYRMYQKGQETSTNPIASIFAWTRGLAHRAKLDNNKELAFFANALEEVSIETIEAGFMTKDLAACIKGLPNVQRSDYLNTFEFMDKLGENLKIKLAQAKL

In patent publication US10442819B2, “Tricyclic compounds as inhibitors of mutant IDH enzymes” (Merck Sharp & Dohme Corp., priority 2014, dated 2019):

Molecular target: R132H mutant IDH1 enzyme (Homo sapiens (Human), UniProt O75874, R132H)
Experiment: R132H IDH1 Enzymatic Assay
Assay type: biochemical
Details: R132H mutant IDH1 enzyme 1.5 nM final; luminescence readout; read-out: IC50

Compound	IC50 [µM]
O=C([C@H]1CC[C@H](c2ccccc2)CC1)N1Cc2cccnc2Nc2ccc(N3CCOCC3)cc21 [Example 128, 8-morpholin-4-yl-6-[(trans-4-phenylcyclohexyl)carbon-yl]-6,11-dihydro-5H-pyrido[2,3-b][1,5]benzodiazepine]	0.071
CO[C@@H]1[C@H](C)C[C@H](C(=O)N2Cc3cccnc3Nc3ccc(N4CCOCC4)cc32)C[C@@H]1C [Example 129, 6-{[(1r,3R,4s,5S)-4-methoxy-3,5-dimethylcyclohexyl]car-bonyl}-8-morpholin-4-yl-6,11-dihydro-5H-pyrido[2,3-b][1,5]benzodiazepine]	0.082
O=C([C@H]1CC[C@@H](C2CCOCC2)CC1)N1Cc2cccnc2Nc2ccc(N3CCOCC3)cc21 [Example 130, 8-morpholin-4-yl-6-{[cis-4-(tetrahydro-2H-pyran-4-yl)cyclohexyl]carbonyl}-6,11-dihydro-5H-pyrido[2,3-b][1,5]benzodiazepine]	0.155
O=C([C@H]1CC[C@H](C2CCOCC2)CC1)N1Cc2cccnc2Nc2ccc(N3CCOCC3)cc21 [Example 131, 8-morpholin-4-yl-6-{[trans-4-(tetrahydro-2H-pyran-4-yl)cyclohexyl]carbonyl}-6,11-dihydro-5H-pyrido[2,3-b][1,5]benzodiazepine]	0.103
O=C([C@H]1CC[C@H](OCC(F)(F)F)CC1)N1Cc2cccnc2Nc2ccc(N3CCOCC3)cc21 [Example 132, 8-morpholin-4-yl-6-{[trans-4-(2,2,2-trifluoroethoxy)cyclohex-yl]carbonyl}-6,11-dihydro-5H-pyrido[2,3-b][1,5]benzodiazepine]	0.064
O=C([C@H]1CC[C@@H](OCC(F)(F)F)CC1)N1Cc2cccnc2Nc2ccc(N3CCOCC3)cc21 [Example 133, 8-morpholin-4-yl-6-{[cis-4-(2,2,2-trifluoroethoxy)cyclohex-yl]carbonyl}-6,11-dihydro-5H-pyrido[2,3-b][1,5]benzodiazepine]	0.04
CO[C@@]1(C)CCC[C@@H](C(=O)N2Cc3cccnc3Nc3ccc(N4CCOCC4)cc32)CC1 [Example 134, 6-{[(1R,4S)-4-methoxy-4-methylcycloheptyl]car-bonyl}-8-morpholin-4-yl-6,11-dihydro-5H-pyrido[2,3-b][1,5]benzodiazepine]	0.546
CO[C@]1(C)CCC[C@@H](C(=O)N2Cc3cccnc3Nc3ccc(N4CCOCC4)cc32)CC1 [Example 135, 6-{[(1R,4R)-4-methoxy-4-methylcycloheptyl]car-bonyl}-8-morpholin-4-yl-6,11-dihydro-5H-pyrido[2,3-b][1,5]benzodiazepine]	0.175
CC(C)O[C@H]1CC[C@H](C(=O)N2Cc3cccnc3Nc3ccc(C4(C#N)CC4)cc32)OC1 [Example 136, 1-(6-((2R,5S)-5-isopropoxytetrahydro-2H-pyran-2-carbonyl)-6,11-dihydro-5H-benzo[b]pyrido[2,3-e][1,4]diazepin-8-yl)cyclopropane-1-carbonitrile]	0.019
CC(C)O[C@H]1CC[C@H](C(=O)N2Cc3cccnc3Nc3ccc(C4(C#N)CC4)cc32)CC1 [Example 137, 1-(6-{[trans-4-(1-methylethoxy)cyclohexyl]-carbonyl}-6,11-dihydro-5H-pyrido[2,3-b][1,5]benzodiazepin-8-yl)cyclopropanecarbo-nitrile]	0.015
CC(C)O[C@H]1CC[C@H](C(=O)N2Cc3cccnc3Nc3ccc(C4(C#N)CCOCC4)cc32)CC1 [Example 138, 4-(6-{[trans-4-(1-methylethoxy)cyclohexyl]-carbonyl}-6,11-dihydro-5H-pyrido[2,3-b][1,5]benzodiazepin-8-yl)tetrahydro-2H-pyran-4-carbonitrile]	0.004
CC(C)O[C@H]1CC[C@H](C(=O)N2Cc3cccnc3Nc3ccc(CC#N)cc32)OC1 [Example 139, 2-(6-((2R,5S)-5-isopropoxytetrahydro-2H-pyran-2-carbonyl)-6,11-dihydro-5H-benzo[b]pyrido[2,3-e][1,4]diazepin-8-yl)acetonitrile]	0.091
CC(C)O[C@H]1CC[C@H](C(=O)N2Cc3cccnc3Nc3ccc(-c4cnn(C)c4)cc32)OC1 [Example 140, ((2R,5S)-5-isopropoxytetrahydro-2H-pyran-2-yl)(8-(1-methyl-1H-pyrazol-4-yl)-5,11-dihydro-6H-benzo[b]pyrido[2,3-e][1,4]diazepin-6-yl)methanone]	0.014
CC(C)O[C@H]1CC[C@H](C(=O)N2Cc3cccnc3Nc3ccc(-c4ccnn4C)cc32)OC1 [Example 141, ((2R,5S)-5-isopropoxytetrahydro-2H-pyran-2-yl)(8-(1-methyl-1H-pyrazol-5-yl)-5,11-dihydro-6H-benzo[b]pyrido[2,3-e][1,4]diazepin-6-yl)methanone]	0.015
CO[C@@H]1CO[C@](C)(c2ccc3c(c2)N(C(=O)[C@H]2CC[C@H](OC(C)C)CO2)Cc2cccnc2N3)C1 [Example 144, ((2R,5S)-5-isopropoxytetrahydro-2H-pyran-2-yl)(8-((2S,4S)-4-methoxy-2-methyltetrahydrofuran-2-yl)-5,11-dihydro-6H-benzo[b]pyrido[2,3-e][1,4]diazepin-6-yl)methanone]	0.011
CC(C)O[C@H]1CC[C@H](C(=O)N2Cc3cccnc3Nc3ccc(C4CC(O)CO4)cc32)OC1 (stereo partly drawn) [Example 145, (8-(4-hydroxytetrahydrofuran-2-yl)-5,11-dihydro-6H-benzo[b]pyrido[2,3-e][1,4]diazepin-6-yl)((2R,5S)-5-isopropoxytetrahydro-2H-pyran-2-yl)methanone]	0.082
CC(C)O[C@H]1CC[C@H](C(=O)N2Cc3cccnc3Nc3ccc(C4CC=CCO4)cc32)OC1 (stereo partly drawn) [Example 146, (8-(3,6-dihydro-2H-pyran-2-yl)-5,11-dihydro-6H-benzo[b]pyrido[2,3-e][1,4]diazepin-6-yl)((2R,5S)-5-isopropoxytetrahydro-2H-pyran-2-yl)methanone]	0.026
CC(C)O[C@H]1CC[C@H](C(=O)N2Cc3cccnc3Nc3ccc(C4CCCCO4)cc32)OC1 (stereo partly drawn) [Example 147, ((2R,5S)-5-isopropoxytetrahydro-2H-pyran-2-yl)(8-(tetrahydro-2H-pyran-2-yl)-5,11-dihydro-6H-benzo[b]pyrido[2,3-e][1,4]diazepin-6-yl)methanone]	0.038
CC(C)C1CC(C(=O)N2Cc3cccnc3Nc3ccc(N4CCOCC4)cc32)C1 (centres unmarked) [Example 150, 6-{[3-(1-methylethyl)cyclobutyl]-carbonyl}-8-morpholin-4-yl-6,11-dihydro-5H-pyrido[2,3-b][1,5]benzodiazepine]	0.125
CC(N1CCC(C(=O)N2Cc3cccnc3Nc3ccc(N4CCOCC4)cc32)CC1)C(F)(F)F (centres unmarked) [Example 151, 8-morpholin-4-yl-6-{[1-(2,2,2-trifluoro-1-methylethyl)piperidin-4-yl]carbonyl}-6,11-dihydro-5H-pyrido[2,3-b][1,5]benzodiazepine]	0.036
CCO[C@H]1CC[C@@H](C(=O)N2Cc3cccnc3Nc3ccc(N4CCOCC4)cc32)C[C@H]1C [Example 152, 6-{[(1R,3R,4S)-4-ethoxy-3-methylcyclohexyl]carbon-yl}-8-morpholin-4-yl-6,11-dihydro-5H-pyrido[2,3-b][1,5]benzodiazepine]	0.046
CC(N1CCC(C(=O)N2Cc3cccnc3Nc3ccc(N4CCOCC4)cc32)CC1)C(F)(F)F (centres unmarked) [Example 153, 8-morpholin-4-yl-6-{[1-(2,2,2-trifluoro-1-methylethyl)piperidin-4-yl]carbonyl}-6,11-dihydro-5H-pyrido[2,3-b][1,5]benzodiazepine]	0.065
CC(N1CCC(C(=O)N2Cc3cccnc3Nc3ccc(N4CCOCC4)cc32)CC1)C(F)(F)F (centres unmarked) [Example 154, 8-morpholin-4-yl-6-{[1-(2,2,2-trifluoro-1-methylethyl)piperidin-4-yl]carbonyl}-6,11-dihydro-5H-pyrido[2,3-b][1,5]benzodiazepine]	0.056
CCO[C@@H]1CC[C@H](C(=O)N2Cc3cccnc3Nc3ccc(N4CC5CCC(C4)O5)cc32)C1 [Example 155, 6-{[(1S,3R)-3-ethoxycyclopentyl]carbon-yl}-8-(8-oxa-3-azabicyclo[3.2.1]oct-3-yl)-6,11-dihydro-5H-pyrido[2,3-b][1,5]benzodiazepine]	0.055
CCC(C)O[C@H]1CC[C@H](C(=O)N2Cc3cccnc3Nc3ccc(N4CCOCC4)cc32)CC1 (stereo partly drawn) [Example 156, 6-[(trans-4-{[1-methylpropyl]oxy}cyclo-hexyl)carbonyl]-8-morpholin-4-yl-6,11-dihydro-5H-pyrido[2,3-b][1,5]benzodiazepine]	0.038
CCO[C@H]1C[C@@H](C(=O)N2Cc3cccnc3Nc3ccc(N4C[C@@H]5CC[C@H]4CO5)cc32)C[C@@H]1F [Example 157, 6-{[(1R,3S,4S)-3-ethoxy-4-fluorocyclopentyl]carbon-yl}-8-[(1S,4S)-2-oxa-5-azabicyclo[2.2.2]oct-5-yl]-6,11-dihydro-5H-pyrido[2,3-b][1,5]benzodiazepine]	0.013
CCO[C@H]1C[C@@H](C(=O)N2Cc3cccnc3Nc3ccc(N4C[C@H]5CC[C@@H]4CO5)cc32)C[C@@H]1F [Example 158, 6-{[(1R,3S,4S)-3-ethoxy-4-fluorocyclopentyl]carbon-yl}-8-[(1R,4R)-2-oxa-5-azabicyclo[2.2.2]oct-5-yl]-6,11-dihydro-5H-pyrido[2,3-b][1,5]benzodiazepine]	0.024
CCO[C@@H]1CC[C@@H](C(=O)N2Cc3cccnc3Nc3ccc(N4CC5CCC(C4)O5)cc32)CC1(F)F [Example 159, 6-{[(1R,4R)-4-ethoxy-3,3-difluorocyclohexyl]car-bonyl}-8-(8-oxa-3-azabicyclo[3.2.1]oct-3-yl)-6,11-dihydro-5H-pyrido[2,3-b][1,5]benzodiazepine]	0.025
CC(C)O[C@H]1CC[C@H](C(=O)N2Cc3cccnc3Nc3ccc(N4CC5CCC(C4)O5)cc32)OC1 [Example 160, (8-(8-oxa-3-azabicyclo[3.2.1]octan-3-yl)-5,11-dihydro-6H-benzo[b]pyrido[2,3-e][1,4]diazepin-6-yl)((2R,5S)-5-isopropoxytetrahydro-2H-pyran-2-yl)methanone]	0.015
